In patent US8202879B2, “Quinazoline derivatives having tyrosine kinase inhibitory activity” (Shionogi & Co., Ltd., priority 2005, dated 2012) one finds IC50 data, which are given here for 3 compounds.

Amino acid sequences for entries named in this document (tags omitted). Residues count along the entry.
UniProt P04626, 23-1255 limits assumed: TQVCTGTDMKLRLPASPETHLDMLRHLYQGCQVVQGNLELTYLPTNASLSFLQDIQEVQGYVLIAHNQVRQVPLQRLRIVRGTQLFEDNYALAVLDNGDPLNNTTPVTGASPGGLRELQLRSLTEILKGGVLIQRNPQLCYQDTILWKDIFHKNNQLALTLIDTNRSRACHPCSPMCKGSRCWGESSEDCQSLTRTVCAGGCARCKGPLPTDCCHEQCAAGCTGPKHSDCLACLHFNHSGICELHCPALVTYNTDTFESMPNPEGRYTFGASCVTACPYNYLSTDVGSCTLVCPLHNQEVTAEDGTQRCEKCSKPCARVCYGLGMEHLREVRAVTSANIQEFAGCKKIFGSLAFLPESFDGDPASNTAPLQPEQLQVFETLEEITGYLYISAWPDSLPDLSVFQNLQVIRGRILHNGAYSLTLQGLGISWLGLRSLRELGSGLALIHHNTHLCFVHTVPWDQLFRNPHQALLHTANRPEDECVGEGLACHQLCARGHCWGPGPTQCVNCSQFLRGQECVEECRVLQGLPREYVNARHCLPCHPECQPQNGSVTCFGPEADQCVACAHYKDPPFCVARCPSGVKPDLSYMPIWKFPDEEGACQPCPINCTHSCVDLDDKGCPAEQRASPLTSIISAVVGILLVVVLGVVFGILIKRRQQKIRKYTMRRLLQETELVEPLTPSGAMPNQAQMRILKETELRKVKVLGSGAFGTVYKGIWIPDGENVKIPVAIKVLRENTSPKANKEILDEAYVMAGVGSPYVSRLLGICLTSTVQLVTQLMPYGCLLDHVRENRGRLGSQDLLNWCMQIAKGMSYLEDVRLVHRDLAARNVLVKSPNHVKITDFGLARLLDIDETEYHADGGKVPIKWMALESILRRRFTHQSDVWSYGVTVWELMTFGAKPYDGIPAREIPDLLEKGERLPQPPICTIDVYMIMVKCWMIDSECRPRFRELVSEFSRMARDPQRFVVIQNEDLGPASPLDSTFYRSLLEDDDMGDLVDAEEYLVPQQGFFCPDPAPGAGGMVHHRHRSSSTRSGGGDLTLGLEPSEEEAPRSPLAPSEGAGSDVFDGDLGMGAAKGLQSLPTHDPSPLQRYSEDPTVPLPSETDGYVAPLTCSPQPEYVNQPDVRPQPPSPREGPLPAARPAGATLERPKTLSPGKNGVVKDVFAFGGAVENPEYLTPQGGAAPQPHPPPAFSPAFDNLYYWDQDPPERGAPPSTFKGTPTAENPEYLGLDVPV

One test deals with BT-474. Description: In vitro cell proliferation inhibition, WST assay. Particulars: read-out: BT-474 (nM) proliferation inhibitory activity (IC50 value), BT-474 cells, cultured for 3 days.
The next test has as its target HER2 (Homo sapiens, UniProt P04626). Description: Enzyme inhibitory activity on HER2 (time resolution fluorescence, biotinylated poly-Glu-Tyr substrate). To be noted: read-out: HER2(nM) inhibitory activity (IC50 value); enzyme reaction at room temperature for 60 minutes.

Each structure is given as a SMILES string.

`CC#C/C(=N\OC[C@H]1COCCN1)c1ccc2ncnc(Nc3ccc(OCc4cccc(F)c4)c(Cl)c3)c2c1` [VIII-102]: in the test on BT-474, the IC50 stood at 10 nM.
The same measure, in the same setting: with `CC#C/C(=N\OC[C@@H]1COCCN1)c1ccc2ncnc(Nc3ccc(OCc4cccc(F)c4)c(Cl)c3)c2c1` [VIII-101] the figure was 9 nM.
Take `CC#C/C(=N\OC[C@@H]1COCCN1)c1ccc2ncnc(Nc3ccc(OCc4ccccn4)c(Cl)c3)c2c1` [VIII-169]: the IC50 in the test with BT-474 was determined as 13 nM; at HER2, 5.9 nM.
